# Assay results: US9284283B2, “Macrocyclic compounds for modulating IL-17” (ENSEMBLE THERAPEUTICS CORPORATION, priority 2012, dated 2016)
# Protein sequences, listed by entry. Tags and fused reporters are not part of them. Residues count along the entry.
# UniProt Q16552, 20-155 limits assumed: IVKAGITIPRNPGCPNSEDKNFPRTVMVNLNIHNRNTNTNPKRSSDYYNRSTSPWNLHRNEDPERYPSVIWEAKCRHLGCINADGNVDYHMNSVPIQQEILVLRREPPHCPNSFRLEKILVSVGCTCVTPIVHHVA
# Assays:
# [1] = target: biotinylated human IL-17 (binding to IL17R/Fc) (Homo sapiens, UniProt Q16552); test: IL-17 competition ELISA II (captured IL17R/Fc, biotinylated IL-17); settings: read-out: ELISA II
# Protocol: In this version, a high binding 96-well plate (Costar #9018) was coated with 20 nM of goat anti-human IgG (KPL 01-10-02) in PBS, 100 μL/well, for 30 min at 37° C. followed by 5 min at 4° C. The plate was then washed in PBST (PBS/0.05% Tween-20) on a plate washer, (BioTek ELx450) then blocked with protein-free blocking buffer (Thermo Scientific #37573) in 250 μL/well for 30 min on a shaker at room temperature, and then washed again. IL17R/Fc (R&D Systems #177-IR; 10 nM in PBST, 100 μL/well) was then added to all wells. The plate was then incubated for 30 minutes at room temperature on the shaker.
# While the receptor capture step was underway, compound dilutions were prepared in PBST to a concentration of 1 μM in 1.5 mL tubes. After the receptor capture step, the plate was washed and 50 μL PBST was added to the wells in row B down to row H. Then, 62.5 μL of the 1 μM compound dilutions were added to the wells of row A. From row A, 12.5 μL of the compound solution was removed and added to row B with mixing and this process of 5-fold dilutions was continued, by row, to row G. One of the wells in row A received only PBST (62.5 μL) and this dilution series served as the no competitor control. Then, going up from row G to row A, 50 μL of b-IL-17 (biotinylated human IL-17, R&D Systems #317-ILB; 20 nM) was added to all wells. Row H received 50 μL of PBST and served as the blank row, i.e., no compound and no b-IL-17. The plate was then incubated for 30 minutes at room temperature on the shaker.
# After the wash, 100 μL Streptavidin-Horseradish Peroxidase (SA-HRP) (KPL #14-30-00) at 25 ng/mL in PBST was added to each well in the plate and the plate incubated for 30 minutes at room temperature followed by wash and 100 μL SureBlue™ TMB (KPL #52-00-03). After sufficient color development (approx 3-6 minutes), the reaction was fixed by the addition of 100 μL/well 0.5 N HCl and absorbance was measured at 450 nm on a BioTek Synergy 2 plate reader. The absorbances of ‘no competitor’ control and blank control should not exceed 1.5 A.U. and 0.06 A.U., respectively.
# Data was processed using BioAssay Enterprise v10.1.4 (CambridgeSoft) software. Linear OD λ450 were plotted against log concentration (x) and fitted to a 4-parameter logistic equation. IC50 was calculated using positive ‘no competitor’ control data as an upper limit and blank control as a lower limit in each assay.
# DNFB-treated BALB/c mice = test: Murine model of delayed hypersensitivity (DNFB-induced ear edema); settings: for Reduction in edema (%) / CXCL1 Reduction (%) / IFNγ Reduction (%) / IL6 Reduction (%): po; for Reduction in edema (%): ear weight 24 h after DNFB challenge; for CXCL1 Reduction (%) / IFNγ Reduction (%) / IL6 Reduction (%): plasma
# Protocol: We used a murine model of fluorodinitrobenzene (DNFB)-induced ear edema to test the anti-inflammatory activity of both orally dosed and intraperitoneally dosed exemplary compounds of the invention. BALB/c mice (Harlan Sprague-Dawley, Inc., male, 6-8 weeks old) were topically treated on their shaved abdomen with 30 μL of 0.5% 1-fluoro-2,4-dinitrobenzene (DNFB) (4:1 acetone:olive oil) once on Day 0 and once on Day 1.
# For oral dosing (“PO”), exemplary compounds of the invention were either suspended at 3 mg/mL in 20% Cremophor EL (Sigma) (20:80; Cremophor:water) or dissolved at 1 mg/mL or 3 mg/mL in D-α-tocopherol polyethylene glycol 1000 succinate (TPGS; Sigma)/PEG-400/water (20:60:20). For intraperitoneal dosing (“IP”), exemplary compounds of the invention were dissolved in DMSO at a concentration of 5 mg/mL. On day 7, the test compound was administered (PO at either 10 mg/kg or 30 mg/kg; IP at 1, 3, or 10 mg/kg) to DNFB-treated mice. Commercially available anti-mouse IL-17A (BioLegend) administered intraperitoneally at 5 mg/kg in PBS was used as a positive control. Thirty minutes later, 20 μL of 0.2% DNFB was applied to the right ear of animals and vehicle ([…]:olive oil) was applied to the left ear. One and four hours after DNFB challenge, a subset of mice was exsanguinated and plasma prepared from the blood. Twenty-four hours after challenge, the remaining mice were euthanized, and their ears were removed and weighed to determine the amount of edema. Plasma was assayed for interleukin-6, TNF-α, CXCL1, and interferon-γ concentrations using commercially-available assays.
# [2] = tested on: IL-17A induced secretion of IL-6 in primary human RASF cells; test: Inhibition of IL17A induced secretion of IL6 in human rheumatoid arthritis synovial fibroblast (RASF) cells; settings: read-out: RASF
# Protocol: This assay was used to determine the extent of inhibition of IL-17A induced secretion of IL-6 in primary human rheumatoid synovial fibroblast (RASF) cells by compounds of the invention. IL-17A is known to stimulate IL-6 production in RASF cells.
# Low passage (passage 2-8) Primary human RASF cells (Asterand) were maintained in maintenance medium. Cells were detached from flasks by tryptic digestion and the cell density of the suspension determined. To each well of a 96 well culture plate was added 100 μL of seeding medium containing 50,000 cells/mL and the plate incubated overnight in a humidified 37° C., 5% CO2 incubator. The medium was replaced with fresh assay medium and cells were incubated for additional 5 hours in a humidified 37° C., 5% CO2 incubator prior to stimulation with recombinant human IL-17A (“rhIL-17A”). Prior to addition to cells, rhIL-17A (30 ng/mL) in assay medium was incubated with either DMSO alone, compounds, or anti-IL17 receptor antibody (3 μg/mL) for 1 hour at 37° C. The final concentration of DMSO in all samples was 0.25%. The final concentration of compounds varied from 0.03 μM to 25 μM.
# Immediately before stimulation, cells were washed once with fresh assay medium. Then, 100 μL of the test samples was added in triplicate wells and the plates incubated for 20 hours in a humidified 37° C., 5% CO2 incubator. The assay medium from each well was collected and the IL-6 concentration in cell culture supernatants was determined by ELISA either immediately or after storage at −20° C.
# A water-soluble tetrazolium salt (WST1) viability assay was immediately performed on the cells after the conditioned medium was collected using a WST1 reagent purchased from Roche. The concentration of IL-6 obtained from ELISA was normalized by the WST1 data.
# [3] = tested on: murine collagen-induced arthritis; test: Mouse collagen-induced arthritis (CIA) model; settings: orally 30 mg/kg in 20% Cremophor EL
# Protocol: Exemplary compounds of the invention were evaluated in a murine CIA model. […] mice (10/group) were anaesthetized with Isoflurane, shaved at the base of the tail, and injected intradermally with 150 μL of Freund's Complete Adjuvant (Sigma) containing bovine type II collagen (Elastin Products, Owensville, Mo.) (2 mg/mL) at the base of the tail on day 0 and again on day 21. On study days 24-25, onset of arthritis occurred and mice were randomized into treatment groups. Randomization into each group was done after swelling was obviously established in at least one paw (score of 1), and attempts were made to ensure approximately equal mean scores of 0.25 across the groups at the time of enrollment. Once a day oral treatment with 10 or 30 mg/kg of test compound in 20% Cremophor EL was initiated after enrollment and continued once a day as indicated through arthritis day 10. Mice were terminated on day 11. Clinical scores were calculated for each of the paws (right front, left front, right rear, and left rear) on arthritis days 1-11 and the results were summarized as a reduction in clinical arthritis score for all paws over the time period of dosing.
# [4] = target: recombinant human IL17a (binding to its receptor IL17R) (Homo sapiens, UniProt Q16552); test: IL-17 competition ELISA I (IL17a coated, IL17R/Fc binding); settings: read-out: ELISA I
# Protocol: ELISA I: The ability of the compounds to block binding of IL17a to its receptor, IL17R, was analyzed in a competition ELISA format. High binding 96-well plates (Costar #9018) were coated with 20 nM of recombinant human IL17a (R&D Systems #317-ILB) in PBS (0.64 μg/mL), 100 μL/well, for 30 min at 37′C followed by 5 min at 4′C. Plates were then washed in PBST (PBS/0.05% Tween-20) on a plate washer, (Biotech EL-450) blocked with protein-free blocking buffer (Thermo Scientific #37573) in 250 μL/well for 30 min on shaker at room temperature, and then washed again. Compound dilutions prepared in PBST were added into the wells in duplicates followed by the addition of IL17R/Fc (R&D Systems #177-IR) at a final concentration of 12 nM. Plates were then incubated for 30 min at room temperature on the shaker. Wells with no compound served as a positive “no competitor” control, while wells with no IL17R/Fc and no compound served as a blank negative control. After an additional PBST wash, 50 ng/mL HRP-conjugated goat anti-human Fc IgG (KPL #04-10-20) was added to the plate for 30 min at room temperature, followed by PBST wash and addition of SureBlue™ TMB (KPL #52-00-03). After the sufficient color development, the reaction was fixed by the addition of 100 μL/well 0.5 N HCl and absorbance was measured at 450 nm on Biotek plate reader.
# Data were processed using BioAssay Enterprise v10.1.4 (CambridgeSoft) software. Linear OD λ450 were plotted against log concentration (x) and fitted to a 4-parameter logistic equation. IC50 was calculated using positive ‘no competitor’ control data as an upper limit and blank control as a lower limit in each assay.
compound,measurement,setting,value
C[C@H]1NC(=O)[C@@H](Cc2ccc(NC(=O)[C@H](Cc3ccccc3Cl)NC(=O)Cc3ccc(F)cc3)cc2)NC(=O)CC2(CCCC2)CC(=O)NCCCCCNC1=O,IC50,[1],< 100 nM
same,Reduction in edema (%),DNFB-treated BALB/c mice; 3 mg/kg,9.7%
same,CXCL1 Reduction (%),DNFB-treated BALB/c mice; 3 mg/kg,25.9%
same,IFNγ Reduction (%),DNFB-treated BALB/c mice; 3 mg/kg,9.3%
same,IL6 Reduction (%),DNFB-treated BALB/c mice; 3 mg/kg,6.5%
same,Reduction in edema (%),DNFB-treated BALB/c mice; 10 mg/kg,23.1%
same,CXCL1 Reduction (%),DNFB-treated BALB/c mice; 10 mg/kg,44.6%
same,IFNγ Reduction (%),DNFB-treated BALB/c mice; 10 mg/kg,29.5%
same,IL6 Reduction (%),DNFB-treated BALB/c mice; 10 mg/kg,22.5%
same,Reduction in edema (%),DNFB-treated BALB/c mice; 30 mg/kg,67.3%
same,CXCL1 Reduction (%),DNFB-treated BALB/c mice; 30 mg/kg,87.0%
same,IFNγ Reduction (%),DNFB-treated BALB/c mice; 30 mg/kg,82.9%
same,IL6 Reduction (%),DNFB-treated BALB/c mice; 30 mg/kg,70.8%
same,IC50,[2],100 to 1000 nM
NC(=O)CC[C@H]1NC(=O)[C@@H](Cc2ccc(NC(=O)[C@H](Cc3ccccc3Cl)NC(=O)Cc3ccc(F)cc3)cc2)NC(=O)CC2(CCCC2)CC(=O)N[C@H](C(=O)O)CCCCNC1=O,IC50,[1],< 100 nM
same,IC50,[2],< 100 nM
O=C1CC2(CCCC2)CC(=O)N[C@H](Cc2ccc(NC(=O)[C@H](Cc3ccccc3Cl)NC(=O)Cc3cccc(O)c3)cc2)C(=O)NCCOCCOCCN1,mean Clinical Arthritis Score over time as compared to the vehicle control,[3]; FIG. 6,reduced
same,"reduction of Clinical Arthritis Score, all paws",[3]; FIG. 7,11%
same,effect on histological parameters,[3]; FIG. 8,little effect
same,overall effect on histological parameters,[3]; FIG. 9,5%
same,IC50,[1],< 100 nM
same,"decrease in IL-6, IFN-γ, CXCL-1, and edema","DNFB-treated BALB/c mice; administered orally in 20% Cremophor vehicle, FIG. 3","effective, dose-dependent decrease"
same,edema and biomarker suppression relative to anti-IL-17A antibody,DNFB-treated BALB/c mice; oral 30 mg/kg vs anti-IL-17A antibody 5 mg/kg i.p.,equivalent to anti-IL-17A antibody
same,oral activity in TPGS-PEG400 oral formulation relative to Cremophor,"DNFB-treated BALB/c mice; oral, FIG. 4 vs FIG. 3",improved the oral activity
same,"IL-6, IFN-γ, CXCL-1, and edema as compared to water, 20% Cremophor vehicle or TPGS/PEG400/Water vehicle alone","DNFB-treated BALB/c mice; orally 10 mg/kg in TPGS/PEG400/Water vehicle, FIG. 4",decreased
same,Reduction in edema (%),DNFB-treated BALB/c mice; 3 mg/kg,7.7%
same,CXCL1 Reduction (%),DNFB-treated BALB/c mice; 3 mg/kg,−17.0%
same,IFNγ Reduction (%),DNFB-treated BALB/c mice; 3 mg/kg,29.2%
same,IL6 Reduction (%),DNFB-treated BALB/c mice; 3 mg/kg,9.3%
same,Reduction in edema (%),DNFB-treated BALB/c mice; 10 mg/kg,36.7%
same,CXCL1 Reduction (%),DNFB-treated BALB/c mice; 10 mg/kg,31.0%
same,IFNγ Reduction (%),DNFB-treated BALB/c mice; 10 mg/kg,35.6%
same,IL6 Reduction (%),DNFB-treated BALB/c mice; 10 mg/kg,35.9%
same,Reduction in edema (%),DNFB-treated BALB/c mice; 30 mg/kg,66.7%
same,CXCL1 Reduction (%),DNFB-treated BALB/c mice; 30 mg/kg,64.3%
same,IFNγ Reduction (%),DNFB-treated BALB/c mice; 30 mg/kg,67.7%
same,IL6 Reduction (%),DNFB-treated BALB/c mice; 30 mg/kg,66.5%
same,IC50,[2],100 to 1000 nM
O=C1CNC(=O)[C@@H](Cc2ccc(NC(=O)[C@H](Cc3ccccc3Cl)NC(=O)Cc3ccccc3)cc2)NC(=O)CC2(CCCC2)CC(=O)OCCCCCN1,IC50,[4],< 100 nM
same,IC50,[2],> 10000 nM
O=C1CNC(=O)[C@@H](Cc2ccc(NC(=O)[C@H](CC3CC3)NC(=O)Cc3ccccc3)cc2)NC(=O)CC2(CCCC2)CC(=O)NCCCCCN1,IC50,[1],< 100 nM
same,IC50,[4],100 to 1000 nM
NC(=O)CC[C@H]1NC(=O)[C@@H](Cc2ccc(NC(=O)[C@H](Cc3ccccc3Cl)NC(=O)Cc3ccc(CO)cc3)cc2)NC(=O)CC2(CCCC2)CC(=O)N[C@H](C(=O)O)CCCCNC1=O,IC50,[1],< 100 nM
same,IC50,[2],< 100 nM
C[C@H]1NC(=O)[C@@H](Cc2ccc(NC(=O)[C@H](Cc3ccccc3Cl)NC(=O)Cc3ccc(F)cc3)cc2)NC(=O)CCC2(CCCC2)C(=O)NCCCCCNC1=O,IC50,[1],< 100 nM
